Patent publication US11279774B2, “Cyclodextrin dimers, compositions thereof, and uses thereof” (UNDERDOG PHARMACEUTICALS, INC., priority 2019, dated 2022)

Test: Turbidity assay (in vitro solubility assay), 7KC suspension
Format: physicochemical
Settings: 7KC vs cholesterol
Experimental: Greater affinity for one compound than another, e.g., greater affinity for 7KC than cholesterol, may be determined using a “turbidity test” performed on an aqueous suspension containing 3% ethanol, 300uM sterol, in PBS and 1 mM of the cyclodextrin to be tested. This single concentration of cyclodextrin is used in order to standardize the test results. To perform the test, the samples are incubated for 30 mins at 37 C, and then absorbance at 350 nm is measured, e.g., using a spectrophotometer plate reader. Relative turbidity is determined by dividing the measured turbidity in the presence of the cyclodextrin to the baseline turbidity without the cyclodextrin. A given cyclodextrin has greater affinity for 7KC than cholesterol if the relative turbidity of the 7KC suspension is lower than the relative turbidity of the cholesterol solution.

For “Quaternary Ammonium (βCD-(TRIAZOLE)1-βCD) Dimer [QA CD-Triazole-CD DS 2]”, the “specificity for 7KC over cholesterol (turbidity)” value was “specificity for 7KC over cholesterol”.
